Target: Adenosine receptor A1 (Rattus norvegicus, UniProt P25099)

Sequences of proteins named here, by UniProt entry; tags and fusion partners are left off.
UniProt P25099, whole entry: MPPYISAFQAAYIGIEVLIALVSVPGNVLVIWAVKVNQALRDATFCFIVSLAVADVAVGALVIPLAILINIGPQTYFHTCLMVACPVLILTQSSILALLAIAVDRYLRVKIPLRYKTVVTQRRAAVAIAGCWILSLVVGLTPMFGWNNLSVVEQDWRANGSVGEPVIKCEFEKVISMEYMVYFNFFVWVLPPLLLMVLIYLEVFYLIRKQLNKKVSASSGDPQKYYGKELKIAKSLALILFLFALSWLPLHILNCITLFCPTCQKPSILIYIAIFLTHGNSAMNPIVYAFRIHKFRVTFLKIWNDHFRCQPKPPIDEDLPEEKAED

Question: Nc1nc(Nc2ccccc2)nc2c1ncn2[C@@H]1O[C@H](CO)[C@@H](O)[C@H]1O was tested. Which Ki did it give?
Answer: 590 nM
